System: ESX030 human primary esophageal cancer xenograft
Settings: Group 4, 5.0 mg/kg Docetaxel alone, day 38

## CC(=O)O[C@@]12CO[C@@H]1C[C@H](O)[C@@]1(C)C(=O)[C@H](O)C3=C(C)[C@@H](OC(=O)[C@H](O)[C@@H](NC(=O)OC(C)(C)C)c4ccccc4)C[C@@](O)([C@@H](OC(=O)c4ccccc4)[C@H]21)C3(C)C [Docetaxel]
  Tumor volume, median: 1310 mm^3

Reference: patent US20220133727A1, “COMBINATION THERAPIES FOR USE IN TREATING CANCER” (Les Laboratoires Servier SAS, priority 2019, published 2022)
